The entries are a selection whose mix differs from that of the whole data set. Some salts and complexes are drawn in separate pieces, as the source files them; their charges need not balance. Activity calls are given as the source filed them.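 The calls were made as follows: active = inhibition above about 70% (limit read from the data); inactive = the rest.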

The chains behind the UniProt entries cited, without tags or fusion partners.
UniProt P63103, whole entry: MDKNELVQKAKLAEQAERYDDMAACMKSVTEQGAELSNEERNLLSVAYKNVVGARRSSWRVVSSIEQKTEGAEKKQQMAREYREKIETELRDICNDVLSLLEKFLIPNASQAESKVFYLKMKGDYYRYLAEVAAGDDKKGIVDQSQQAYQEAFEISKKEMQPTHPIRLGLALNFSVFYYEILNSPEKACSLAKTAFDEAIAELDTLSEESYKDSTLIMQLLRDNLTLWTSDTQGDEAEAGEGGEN

The target in the assay is 14-3-3 protein zeta/delta (Bos taurus) (UniProt P63103). Nature of the assay: disruptors of 14-3-3 zeta phospho-Bad complex – biochemical, TR-FRET, bovine 14-3-3 zeta, primary screen (AID 781).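 Also: 0% = full 14-3-3 plus peptide FRET controls and 100% = background without 14-3-3.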 The conditions noted are these: TR-FRET 14-3-3zeta/Dy647-pBad peptide displacement, 1 h; at 21.7 µM; hits give high values. Background: Time-resolved FRET reads energy transfer from a long-lived donor to a nearby acceptor.
In the case of `CP(=O)(OC12CC3CC(CC(C3)C1)C2)OC12CC3CC(CC(C3)C1)C2`, the inhibition – broadly, the change of the read-out against control, counted positive when it falls – was inactive: 6.17%.

On to `CCOC(=O)c1ccc(NP(C)(=O)Oc2ccc(Cl)cc2)cc1` (configuration not stated), for which the inhibition is inactive: 6.01%.

For the compound `CN(C)C(=O)c1c([N+](=O)[O-])cc([N+](=O)[O-])cc1[N+](=O)[O-]`, the inhibition is inactive: -23.4%.

Take `CP(=O)(Nc1ccc(Cl)cc1)Oc1ccc(F)cc1` (configuration not stated): the inhibition is inactive: -6.77%.

`COc1ccccc1OP(C)(=O)Nc1ccccc1Br` (configuration not stated): the inhibition is inactive: -5.33%.

Consider `CCc1ccc(OP(C)(=O)Nc2cccnc2)cc1` (configuration not stated), for which the inhibition is inactive: -3.07%.

For `CP(=O)(Oc1ccccc1)N1CCOC1=O` (configuration not stated), the inhibition was inactive: -5.81%.

With `O=C(OCCCN1CCCC1)C(O)(c1ccccc1)C1CCCCC1` (configuration not stated), the inhibition is inactive: -2.29%.

In the case of `COc1ccc(OP(C)(=O)Nc2ccc(Br)cc2)cc1` (configuration not stated), the inhibition is inactive: -2.06%.

As for `CCN(CC)CC(O)COC(=O)C(O)(c1ccccc1)C1CCCCC1` (configuration not stated), the inhibition was inactive: 0.94%.

Regarding `CCc1ccc(OP(C)(=O)O)cc1`, the inhibition was inactive: 7.26%.

For `COc1ccccc1OP(C)(=O)Nc1ccc(C)cc1C` (configuration not stated), the inhibition was inactive: -0.69%.

In the case of `CP(=O)(Nc1ccccn1)Oc1ccccc1` (configuration not stated), the inhibition was inactive: 4.31%.

Regarding `O=[N+]([O-])c1cc([N+](=O)[O-])c(Nc2ccccn2)c([N+](=O)[O-])c1`, the inhibition is inactive: -8.33%.

As for `Cc1c(NP(C)(=O)Oc2ccc(C(C)C)cc2)c(=O)n(-c2ccccc2)n1C` (configuration not stated), the inhibition is inactive: -12.6%.

Regarding `CN(C)CCOC(=O)C(O)(c1ccccc1)C1CCCC1` (configuration not stated), the inhibition was inactive: 14%.

As to `COc1ccc(OP(C)(=O)Nc2ccccn2)cc1` (configuration not stated), the inhibition was inactive: -1.28%.

As to `COc1ccccc1OP(C)(=O)Nc1ccc(Br)cc1` (configuration not stated), the inhibition is inactive: 0.39%.

In the case of `CP(=O)(OCCOc1ccccc1)OCCOc1ccccc1`, the inhibition was inactive: -1.3%.

As for `CP(=O)(Nc1ccc(Cl)cc1Cl)Oc1ccccc1` (configuration not stated), the inhibition is inactive: -5.13%.

Take `Cc1nc2ccc3ccccc3c2o1.O=[N+]([O-])c1cc([N+](=O)[O-])c(O)c([N+](=O)[O-])c1`: the inhibition was inactive: 52.2%.

For `COc1ccc(OP(C)(=O)Nc2ccccc2Br)cc1` (configuration not stated), the inhibition was inactive: -6.46%.

As to `COc1ccccc1OP(C)(=O)Nc1ccc(C)c(C)c1` (configuration not stated), the inhibition is inactive: -4.88%.

For `Cc1cc(C)cc(OP(C)(=O)Nc2cccc(C(F)(F)F)c2)c1` (configuration not stated), the inhibition was inactive: -7.96%.

With `CCCCCOc1ccc(NP(C)(=O)Oc2ccc(Cl)cc2Cl)cc1` (configuration not stated), the inhibition was inactive: 22%.

As for `CP(=O)(Nc1ccccc1)Oc1ccc(F)cc1` (configuration not stated), the inhibition is inactive: 3.03%.

`CCN(CC)CCCOC(=O)C(O)(c1ccccc1)C1CCCCC1` (configuration not stated): the inhibition is inactive: -0.14%.

Turning to `COc1ccc(OP(C)(=O)Nc2ccc(SC(F)(F)F)cc2)cc1` (configuration not stated), the inhibition was inactive: -9.85%.

For `CCOC(=O)c1ccc(NP(C)(=O)Oc2ccc(F)cc2)cc1` (configuration not stated), the inhibition is inactive: -4.15%.

Turning to `COc1ccc2c(c1O)-c1c(O)c(OC)cc3c1[C@H](C2)[N+](C)(C)CC3.O=[N+]([O-])c1cc([N+](=O)[O-])c([O-])c([N+](=O)[O-])c1[O-]`, the inhibition is inactive: -2.48%.

Consider `O=C(OCCN1CCN(CCOCc2ccccc2)CC1)C(O)(c1ccccc1)c1ccccc1`, for which the inhibition was inactive: 36.7%.

`O=C(OC1CN2CCC1CC2)c1ccc([N+](=O)[O-])cc1` (configuration not stated): the inhibition is inactive: 6.88%.

Consider `CC(C)c1ccc(OP(C)(=O)Nc2ccc(SC(F)(F)F)cc2)cc1` (configuration not stated), for which the inhibition is inactive: 9.27%.

In the case of `CP(=O)(Nc1ccccc1F)Oc1ccccc1` (configuration not stated), the inhibition was inactive: -1.33%.

Consider `Cc1ccccc1NP(C)(=O)Nc1ccccc1C`, for which the inhibition was inactive: -2.59%.

Turning to `CP(=O)(Nc1ccc2c(c1)OCCO2)Oc1ccccc1` (configuration not stated), the inhibition was inactive: 16.2%.

As for `CCOP(C)(=S)SCC(=O)NC(C)(CC)C(=O)O` (configuration not stated), the inhibition is inactive: -1.84%.

Turning to `CP(=O)(Nc1ccc(SC(F)(F)F)cc1)Oc1ccc(F)cc1` (configuration not stated), the inhibition was inactive: 5.01%.

As for `Cc1cc(-c2cccc3ccccc23)c(C)cn1.O=[N+]([O-])c1cc([N+](=O)[O-])c(O)c([N+](=O)[O-])c1`, the inhibition was inactive: -1.74%.

Take `O=[N+]([O-])c1cc([N+](=O)[O-])c(NCC2CCS(=O)(=O)C2)c([N+](=O)[O-])c1` (configuration not stated): the inhibition was inactive: -3.55%.

As for `O=[N+]([O-])c1ccc(OP2(=O)COCCO2)cc1` (configuration not stated), the inhibition was inactive: 6.07%.

In the case of `COc1ccc(NP(C)(=O)Oc2ccccc2OC)cc1` (configuration not stated), the inhibition was inactive: -0.96%.

Consider `CN(C)CCOC(=O)C(O)(c1ccccc1)C1CCCCC1` (configuration not stated), for which the inhibition is inactive: 7.49%.

With `COc1ccc(OP(C)(=O)Nc2cccc(Br)c2)cc1` (configuration not stated), the inhibition was inactive: 9.96%.

Regarding `CP(=O)(Nc1ccc(SC(F)(F)F)cc1)Oc1ccccc1` (configuration not stated), the inhibition was inactive: -2.08%.

With `CCCOc1ccc(NP(C)(=O)Oc2ccc(Cl)cc2)cc1` (configuration not stated), the inhibition is inactive: 0.9%.

Regarding `CN1CCCCC1COC(=O)C1(O)c2ccccc2CCc2ccccc21` (configuration not stated), the inhibition is inactive: -13.5%.

Consider `COc1ccccc1OP(C)(=O)Nc1c(C)cccc1C` (configuration not stated), for which the inhibition is inactive: -9.33%.

For `CCOC(=O)C(CC)C1=NC(C)(C)Cc2ccccc21.O=[N+]([O-])c1cc([N+](=O)[O-])c(O)c([N+](=O)[O-])c1` (configuration not stated), the inhibition is inactive: -12.9%.

For the compound `O=[N+]([O-])c1cc([N+](=O)[O-])c(Nc2nnnn2CCO)c([N+](=O)[O-])c1`, the inhibition was inactive: 3.2%.

In the case of `Cc1nc2ccc3ccccc3c2s1.O=[N+]([O-])c1cc([N+](=O)[O-])c(O)c([N+](=O)[O-])c1`, the inhibition is inactive: 38.6%.

`O=[N+]([O-])c1cc([N+](=O)[O-])c(-n2nnc3ccccc32)c([N+](=O)[O-])c1`: the inhibition was inactive: -12.6%.

For `CP(=O)(Nc1cccc(Br)c1)Oc1ccccc1` (configuration not stated), the inhibition is inactive: -5.09%.

`Cc1cc(C)cc(OP(C)(=O)Nc2ccccn2)c1` (configuration not stated): the inhibition is inactive: -2.58%.

Take `Cc1ccc(C)c(NP(C)(=O)Oc2ccccc2)c1` (configuration not stated): the inhibition was inactive: 8.88%.

Turning to `Cc1cc(C)cc(OP(C)(=O)Nc2ccc(C)cc2C)c1` (configuration not stated), the inhibition is inactive: 4.54%.

In the case of `CCOC(=O)c1ccc(NP(C)(=O)Oc2cc(C)cc(C)c2)cc1` (configuration not stated), the inhibition is inactive: -11.2%.

Consider `COc1ccccc1OP(C)(=O)Nc1cccc(Br)c1` (configuration not stated), for which the inhibition is inactive: 0.43%.

Consider `CC1=NCCc2c1[nH]c1ccccc21.O=[N+]([O-])c1cc([N+](=O)[O-])c(O)c([N+](=O)[O-])c1`, for which the inhibition was inactive: -4.83%.

Regarding `O=C(O)c1cccc(Nc2c([N+](=O)[O-])cc([N+](=O)[O-])cc2[N+](=O)[O-])c1`, the inhibition is inactive: -0.53%.

Take `COc1ccc(OP(C)(=O)Nc2cccc(F)c2)cc1` (configuration not stated): the inhibition is inactive: 4.74%.

Turning to `COc1ccccc1OP(C)(=O)Nc1cc(Cl)ccc1C` (configuration not stated), the inhibition is inactive: -0.62%.

With `Cc1cc(C)cc(OP(C)(N)=O)c1` (configuration not stated), the inhibition is inactive: -0.48%.

As to `CCOC(=O)c1ccc(NP(C)(=O)Oc2ccccc2)cc1` (configuration not stated), the inhibition was inactive: 7.97%.

As to `Cc1ccc(NP(C)(=O)Oc2ccccc2)c(C)c1` (configuration not stated), the inhibition is inactive: -6.05%.

In the case of `COc1ccccc1OP(C)(=O)Nc1ccc(C)cc1` (configuration not stated), the inhibition is inactive: -9.7%.

Regarding `Cc1cccc(C)c1OP(C)(N)=O` (configuration not stated), the inhibition was inactive: 0.74%.

For `CC(C)(C)c1ccc(OP(C)(=O)Nc2ccc(SC(F)(F)F)cc2)cc1` (configuration not stated), the inhibition was inactive: 1.5%.

Turning to `O=[N+]([O-])c1ccc2c(c1)C=Nc1ccccc1O2`, the inhibition is inactive: -5.36%.

As to `CCN(CC)CCCOC(=O)C(O)(c1ccccc1)c1ccccc1`, the inhibition is inactive: -7.09%.

As to `CP(=O)(Nc1ccccn1)Oc1ccc(Cl)cc1` (configuration not stated), the inhibition is inactive: -1.17%.

For the compound `CCOP(C)(=S)SCC(=O)NC(C)C(=O)O` (configuration not stated), the inhibition was inactive: -3.41%.

As to `CCOC(=O)c1ccc(NP(C)(=O)Oc2ccc(OC)cc2)cc1` (configuration not stated), the inhibition is inactive: 0.88%.

`Cc1cc(C)cc(OP(C)(=O)Nc2ccc(SC(F)(F)F)cc2)c1` (configuration not stated): the inhibition was inactive: 9.32%.

With `CCc1ccc(OP(C)(=O)N2CCN(c3ccc([N+](=O)[O-])cc3)CC2)cc1` (configuration not stated), the inhibition is inactive: -1.42%.

With `CP(=O)(NC(=O)Nc1ccccc1)Oc1ccccc1` (configuration not stated), the inhibition is inactive: -0.07%.

With `CP(=O)(Oc1ccccc1)OC(c1ccccc1)C(F)(F)F` (configuration not stated), the inhibition is inactive: -1.99%.

Take `CP(=O)(Nc1ccc(SC(F)(F)F)cc1)Oc1ccc(Cl)cc1` (configuration not stated): the inhibition is inactive: 3.18%.

Take `Cc1cccc(C)c1OP(C)(=O)Nc1ccc(SC(F)(F)F)cc1` (configuration not stated): the inhibition is inactive: -6.59%.

Turning to `COc1ccccc1OP(C)(=O)Nc1ccccc1` (configuration not stated), the inhibition is inactive: -6.67%.

Regarding `CP(=O)(Nc1ccccc1Br)Oc1ccccc1` (configuration not stated), the inhibition was inactive: -7.05%.

Take `CP(=S)(Nn1cnnc1)Oc1ccccc1` (configuration not stated): the inhibition is inactive: -20.1%.

Values taken from PubChem BioAssay AID781 (Emory University Molecular Libraries Screening Center, 2007).
